Compound activity (PubChem BioAssay)
Hits are enriched below; roughly 0.94% of the tested compounds scored in any of these assays.
p-CIP stab down – compounds decreasing mouse p/CIP protein stability; Q05BA5; F442A p/CIP-EGFP cells, EGFP fluorescence, 16 h; decrease of EGFP signal, % at 10 µM; hit rate 0.01% among 290,000; AID 1984;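 active = EGFP signal decrease of at least 30% at 10 µM or well 3 SD below plate mean, unless failing retest; inactive = the rest, including hits failing retest or dose response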
ABCB6 inh MLPCN – human ABCB6 transporter inhibition; fluorescence ratio to DMSO, % at 10 µM; hit rate 0.19% among 360,000; K562-ABCB6 porphyrin accumulation, flow cytometry, 1 h; active compounds read low; Q9NP58;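 active = fluorescence ratio to DMSO below 75%, the collection mean minus 3 SD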;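 note: signal is porphyrin accumulated inside mitochondria; 100% equals median channel fluorescence of DMSO control wells; lower ratio means ABCB6 inhibition with less porphyrin fluorescence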
PKA-R2B act – PKA-R2B complex activation; hit rate 0.079% among 340,000; activation, % at 11.4 µM; PKA-R2B holoenzyme dissociation, Cy5-IP20 fluorescence polarization; R2B truncated from residue 108, S112A mutant; 0% DMSO only, 100% 113 µM cGMP;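 active = activation above a cutoff set at the mean over all compounds plus 3 SD, cut at about 18% in these data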;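 note: higher means more holoenzyme dissociation and a rise in polarization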
Yeast UUG start-1 – yeast start codon fidelity modulation. S. cerevisiae UUG-firefly luciferase reporter, luminescence/redox ratio. activity score, % at 18.7 µM. 0.13% of 350,000 active;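 active = replicate mean at a twofold rise or more, about +100% in these data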;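 also: firefly luciferase made from a UUG start codon reports start codon fidelity; reporter light over untreated wells divided by growth signal over untreated wells; some hits fall short of that in this replicate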
Granule exo inh – blocks lytic granule exocytosis; AID 651702; inhibition, % at 10 µM; TALL-104 LAMP-1 surface exposure, flow cytometry; cells stimulated with thapsigargin and PMA; hit rate 0.66% among 360,000;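 active = inhibition above about 55%, limit read from the data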
PKA-R1A activ – activators of PKA-R1A complex; P00514+P68181; PKA-R1A dissociation, Cy5-IP20 fluorescence polarization; scaled: DMSO 0%, 113 µM cGMP 100%; activation, % at 11.4 µM; hit rate 0.083% among 340,000; AID 504707;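 active = percent activation above the mean of all tested compounds plus 3 SD, cut at about 19% in these data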;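 note: higher means more PKAc released from R1A so a rise in polarization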
Yeast UUG start-2 – alters UUG start codon use in yeast. AID 652061. activation, % at 38 µM. shares compounds with Yeast UUG start-1. 540 tested, under 10 active. S. cerevisiae UUG-start firefly luciferase, luminescence, 4 h; 100% means double the DMSO signal;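 active = signal increase whose fitted curve reaches an absolute level of 40 at a concentration under 10 µM; inactive = activity opposite to the expected increase, or the rest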
* hit, by the source's call; i = inactive; x = no result given.

[1] O=C(N[C@H]1CC[C@H](CCNS(=O)(=O)c2ccc(F)cc2)O[C@@H]1CO)c1cnccn1
[2] Cc1ccc(NC(=O)/C(=C\c2cccc([N+](=O)[O-])c2)NC(=O)c2cccs2)cc1
[3] COc1ccc(/C=C(/NC(=O)c2cccs2)C(=O)Nc2ccc(C)cc2)cc1OC
[4] C[C@@H]1CCCCO[C@@H](CN(C)Cc2ccc(C(=O)O)cc2)[C@H](C)CN([C@@H](C)CO)C(=O)c2cc(NS(=O)(=O)c3ccc(F)cc3)ccc2O1
[5] C[C@@H]1CN([C@H](C)CO)C(=O)c2cc(C#CC3CC3)cnc2O[C@@H]1CN(C)Cc1ccccc1C(=O)O
[6] COc1cccc(Oc2nc3ncn(Cc4ccccc4)c3c(=O)n2C)c1
[7] COc1cccc(Cn2c(Oc3ccccc3)nc3c2c(=O)n(C)c(=O)n3C)c1
[8] CN1c2ccc(-c3ccccc3)cc2[C@H]2[C@H](CCN2C(=O)Cc2ccccn2)[C@@H]1CO

assay / entry	1	2	3	4	5	6	7	8
Granule exo inh	x	2.1	-5.2	x	x	-0.4	-1.2	x
PKA-R2B act	x	3.9	0.3	x	x	-4.2	-4.9	x
PKA-R1A activ	x	0.3	-1.9	x	x	-13.6	2.2	x
ABCB6 inh MLPCN	x	95.0	98.0	x	x	96.0	97.0	x
p-CIP stab down	x	-2.5	-4.6	x	x	-3.6	-13.4	x
Yeast UUG start-1	-1.7	557.1*	x	111.8*	5.5	112.9*	-12.0	-2.1
Yeast UUG start-2	x	5.8	x	i	x	12.7	x	x

[9] COc1ccc(-c2noc(Cc3cccs3)n2)cc1
[10] C=CCN1C(=O)C2C(C(=O)NCc3ccccc3)C3C=CC2(O3)C1C(=O)NC(C)(C)C (stereo not drawn)
[11] C/C(=N/NC(=O)CNC(=O)c1ccncc1)c1ccco1
[12] C/C(=N/NC(=O)CNC(=O)c1ccco1)c1ccco1
[13] CC(C)(C)Cc1c(-c2ccc(C#N)cc2)nc2ccc(Cl)cn12
[14] O=C(CCN1CCCCC1)N[C@@H]1CC[C@@H](CCNS(=O)(=O)c2ccc(F)cc2)O[C@H]1CO
[15] Cc1onc(-c2ccc(Cl)cc2)c1-c1ccnn1S(=O)(=O)c1cccc(C(F)(F)F)c1
[16] C[C@H]1CN([C@@H](C)CO)C(=O)Cc2cc(NC(=O)c3ccncc3)ccc2O[C@H]1CN(C)S(=O)(=O)c1cn(C)cn1

assay / entry	9	10	11	12	13	14	15	16
Granule exo inh	-2.2	-2.7	12.0	-9.9	-4.2	x	-1.0	x
PKA-R2B act	-1.0	3.5	x	-14.0	-7.5	x	x	x
PKA-R1A activ	-7.3	-2.0	x	-1.9	-10.8	x	x	x
ABCB6 inh MLPCN	102.0	91.0	99.0	99.0	128.0	x	98.0	x
p-CIP stab down	-0.5	-16.0	-15.6	0.8	x	x	3.4	x
Yeast UUG start-1	active	533.1*	180.4*	-30.1	165.0*	-8.8	186.8*	-13.5
Yeast UUG start-2	-4.4	-5.9	8.4	x	-5.8	x	18.7	x

[17] O=S(=O)(c1cccc(F)c1)N1CC[C@@H]2[C@H]1c1cc(C#Cc3ccccc3F)ccc1N[C@@H]2CO
[18] C[C@@H]1CN([C@@H](C)CO)C(=O)c2cc(C#CC3CCCC3)cnc2O[C@H]1CN(C)C(=O)Nc1ccccc1
[19] C[C@H](CO)N1C[C@H](C)[C@@H](CN(C)Cc2cccnc2)Oc2ncc(C#CC3CCCCC3)cc2C1=O
[20] CNC[C@H]1Oc2ccc(NC(=O)Cc3cn(C)c4ccccc34)cc2C(=O)N([C@@H](C)CO)C[C@H]1C
[21] O=C(C[C@H]1CC[C@H]2[C@@H](COC[C@@H](O)CN2C(=O)c2ccccc2F)O1)N1CCCCC1
[22] CC1=C(C(=O)N(C)C)CC(CC(=O)NCCc2ccccn2)C(=O)N1CCCN1CCCC1=O (stereo not drawn)
[23] CC1=C(C(=O)N(C)C)CC(CC(=O)NCCCN(C)C)C(=O)N1CCCN1CCCC1=O (stereo not drawn)
[24] CCN(CC)C(=O)C1=C(C)N(CCCN2CCCC2=O)C(=O)C(CC(=O)NCCc2ccccn2)C1 (stereo not drawn)
[25] CC1=C(C(=O)N(C(C)C)C(C)C)CC(CC(=O)NCCCN(C)C)C(=O)N1CCCN1CCCC1=O (stereo not drawn)
[26] COc1ccccc1NC(=O)c1ccc(NS(=O)(=O)c2c(C)noc2C)cc1

assay / entry	17	18	19	20	21	22	23	24	25	26
Granule exo inh	x	x	x	x	x	0.1	3.7	-5.5	-3.2	0.7
PKA-R2B act	x	x	x	x	x	-1.2	x	1.4	x	9.2
PKA-R1A activ	x	x	x	x	x	-3.6	x	0.3	x	5.1
ABCB6 inh MLPCN	x	x	x	x	x	96.0	101.0	101.0	97.0	110.0
p-CIP stab down	x	x	x	x	x	x	x	x	x	3.8
Yeast UUG start-1	-21.6	156.9*	141.2*	13.7	-1.4	101.3*	104.3*	-23.5	-6.9	441.9*
Yeast UUG start-2	x	i	i	x	x	-6.3	7.2	x	x	-4.0
